Experimental data as given in US10689362B2, “Quinoxaline compounds as type III receptor tyrosine kinase inhibitors” (Development Center for Biotechnology, priority 2016, dated 2020).
Where two headings read alike, the source gives them in different places.

What was measured:
Assay type in all cases: cell-based
[1] = system: MV4-11 human acute myeloid leukemia cell with FLT3-ITD mutation; assay: MV4-11 cell proliferation assay (CellTiter-96); settings: read-out: MV4-11 IC50
Protocol: (§1) Inhibition of cell growth by compounds was measured using CellTiter™-96 assay. The cytotoxicity of compounds was evaluated in CSF-1-dependent M-NFS-60 mouse myeloid leukemia cell, FLT3 signal addicted MV4-11 human acute myeloid leukemia cell with FLT3-ITD mutation, c-KIT signal addicted Kasumi-1 human acute myeloid leukemia cell with c-KIT N822K activating mutation, and THP-1 human acute monocytic leukemia cell harboring NRAS G12D mutation.
The compounds disclosed herein were tested in MV4-11 cell proliferation assay to determine their cellular potency against FLT3 kinase. MV4-11 human acute myeloid leukemia cells harbor ligand-independent FLT3-ITD activating mutation, which render its proliferation FLT3-ITD dependent. Inhibition of FLT3 kinase activity will cause reduced growth and/or cell death. MV4-11 cells (catalog # CRL-9591) were obtained from the American Type Culture Collection (ATCC, Manassas, Va.). […] Cells were allowed to expand until reaching saturation at which point they were subcultured or harvested for assay use.
(§2) M-NFS-60, Kasumi-1, MV4-11 and THP-1 cells were seeded into 96-well plates at 2000, 64000, 6500, and 5000 cells/well, respectively, and incubated at 37° C., 5% CO2 overnight. Then, these seeded cells were treated with increasing concentrations of the test compounds and incubated for another 72 hours. At the end of the incubation, CellTiter96® AQueous One Solution Reagent (Promega) was added and incubated for 4 hours. Cell viability was determined by measuring absorbance at 490 nm using EMax® microplate reader (Molecular Devices).
(§3) The 50% inhibitory concentration (IC50) value was calculated by plotting the percentage of growth inhibition against the concentration of compound, using GraphPad Prism 5 software for curve fitting.

[2] = system: osteoclast precursors (osteoclast differentiation); assay: Osteoclast tartrate-resistant acid phosphatase assay; settings: 168 h, at 1 μM treatment, 7 days, RANKL and M-CSF, read-out: inhibition activity against osteoclast differentiation
Protocol: A serial dilution of test compound was dispensed into a 96-well black clear bottom plate. Compound was diluted by the addition of DMEM media supplemented with 10% characterized fetal bovine serum. Diluted compound was transferred to a 96-well black clear bottom plate. Three thousand osteoclast precursors (Lonza, Walkersville, Md.) were added per well in growth medium containing Receptor Activator of Nuclear Factor Kappa-beta ligand (RANKL) and M-CSF. Plates were incubated for 7 days at 37° C., 5% CO2, and 95% humidity to allow differentiation of osteoclast precursors. At the end of the incubation period, 50 μL of supernatant from each well was transferred to a clear 96-well plate. Tartrate-resistant acid phosphatase activity in the supernatant samples was determined using an acid phosphatase assay kit (Sigma, St. Louis, Mo.). Absorbance was measured at 550 nm using a plate reader. […] The Inhibition activity against osteoclast differentiation for each compound at 1 μM treatment in duplicate was measured.

[3] = system: Kasumi-1 human acute myeloid leukemia cell with c-KIT N822K activating mutation; assay: Kasumi-1 cell proliferation assay (CellTiter-96); settings: Cytotoxicity, Kasumi-1 cells
Protocol: as §1
The compounds disclosed herein were tested in Kasumi cell proliferation assay to determine their cellular potency against c-KIT kinase. Kasumi human acute myeloid leukemia cells harbor ligand-independent N822K c-KIT activating mutation, thus the cell proliferation relied on c-KIT signal. Inhibition of c-KIT kinase activity will cause reduced growth and/or cell death. Kasumi-1 cells (catalog # CRL-2724) were obtained from the American Type Culture Collection (ATCC, Manassas, Va.). Briefly, cells were grown in suspension in RPMI 1640 medium supplemented with 10% characterized fetal bovine serum (Invitrogen, Carlsbad, Calif.) at 37° C., 5% CO2, and 95% humidity. Cells were allowed to expand until reaching saturation at which point they were subcultured or harvested for assay use.
as §2, §3

[4] = system: THP-1 human acute monocytic leukemia cell harboring NRAS G12D mutation; assay: THP-1 cell proliferation assay (counter screen, CellTiter-96); settings: Cytotoxicity, THP-1 cells (counter screen), 72 hours
Protocol: as §1
THP-1 human acute monocytic leukemia cells harbor NRAS G12D mutation, which renders cell proliferate independently of class III RTKs signal. THP-1 cells (catalog # TIB-202) were obtained from the ATCC. Briefly, cells were grown in RPMI 1640 supplemented with 10% characterized fetal bovine serum, and 0.05 mM 2-mercaptoethanol at 37° C., 5% CO2, 95% humidity. Cells were allowed to expand until reaching saturation at which point they were subcultured or harvested for assay use.
as §2, §3

[5] = system: CSF-1-dependent M-NFS-60 mouse myeloid leukemia cell; assay: M-NFS-60 cell proliferation assay (CellTiter-96); settings: Cytotoxicity, M-NFS-60 cells, 72 hours
Protocol: as §1
The compounds disclosed herein were tested in M-NFS-60 cell proliferation assay to determine their cellular potency against CSF-1R. The proliferation and viability of M-NFS-60 cells, a murine myeloblastic cell line, depend on the binding of the ligand M-CSF to its receptor, CSF-1R, to proliferate. Inhibition of CSF-1R kinase activity will cause reduced growth and/or cell death. M-NFS-60 cells (catalog # CRL-1838) were obtained from the American Type Culture Collection (ATCC, Manassas, Va.). Briefly, cells were grown in suspension in RPMI 1640 medium supplemented with 10% characterized fetal bovine serum (Invitrogen, Carlsbad, Calif.), 0.05 mM 2-mercaptoethanol, and 20 ng/mL mouse recombinant macrophage colony stimulating factor (M-CSF) at 37° C., 5% CO2, and 95% humidity. Cells were allowed to expand until reaching saturation at which point they were subcultured or harvested for assay use.
as §2, §3

| Structure (SMILES) | IC50 [1] [nM] | inhibition at 1 µM [2] [%] | IC50 ([3]; 72 hours) [nM] | IC50 ([4]; Homo sapiens) [nM] | IC50 ([5]; Mus musculus) [nM] | IC50 [4] [nM] | IC50 [5] [nM] | IC50 ([1]; Homo sapiens, MV4-11, 72 h) [nM] | IC50 ([3]; Homo sapiens, Kasumi 1, 72 h) [nM] |
| --- | --- | --- | --- | --- | --- | --- | --- | --- | --- |
| COc1ccc(COc2ccc(Oc3ccc4ncc(OC)nc4c3C#N)cc2OC)cc1 [Example 10, 3-methoxy-6-(3-methoxy-4-((4-methoxpenzyl)oxy)phenoxy)quinoxaline-5-carbonitrile] | 1000 to 10000 | > 50 | > 10000 | > 10000 | < 300 | – | – | – | – |
| COc1ccc(COc2ccc(Oc3ccc4ncc(OC)nc4c3C#N)cc2OC)cc1 [Example 26, 3-methoxy-6-(3-methoxy-4-((4-methoxybenzyl)oxy)phenoxy)quinoxaline-5-carbonitrile] | > 10000 | – | 1000 to 10000 | – | – | > 10000 | < 300 | – | – |
| CCOc1cc(Oc2ccc3ncc(OC)nc3c2C#N)ccc1OCc1ccc(OC)cc1 [Example 30, 6-(3-ethoxy-4-((4-methoxybenzyl)oxy)phenoxy)-3-methoxyquinoxaline-5-carbonitrile] | – | – | – | > 10000 | < 300 | – | – | > 10000 | > 10000 |
| COc1cc(Nc2ccc3ncc(N4CCOCC4)nc3c2C#N)ccc1OCc1cccnc1 [Example 43, 6-((3-methoxy-4-(pyridin-3-ylmethoxy)phenyl)amino)-3-morpholinoquinoxaline-5-carbonitrile] | – | – | – | > 10000 | 300 to 1000 | – | – | 1000 to 10000 | 300 to 1000 |
| COc1cc(Nc2ccc3ncc(N4CCOCC4)nc3c2C#N)ccc1OCc1ccc(C)nc1 [Example 54, 6-((3-methoxy-4-((6-methylpyridin-3-yl)methoxy)phenyl)amino)-3-morpholinoquinoxaline-5-carbonitrile] | – | > 50 | – | > 10000 | < 300 | – | – | 1000 to 10000 | 300 to 1000 |
| COc1cc(Nc2ccc3ncc(N4CCOCC4)nc3c2C#N)ccc1OCc1cnc(C)nc1 [Example 128, 6-((3-methoxy-4-((2-methylpyrimidin-5-yl)methoxy)phenyl)amino)-3-morpholinoquinoxaline-5-carbonitrile] | – | – | – | > 10000 | 300 to 1000 | – | – | 1000 to 10000 | 1000 to 10000 |
| COc1cc(Nc2ccc3ncc(N4CCOCC4)nc3c2C#N)ccc1OCc1cnn(C2CC2)c1 [Example 134, 6-((4-((1-cyclopropyl-1H-pyrazol-4-yl)methoxy)-3-methoxy-phenyl)amino)-3-morpholinoquinoxaline-5-carbonitrile] | – | > 50 | – | > 10000 | < 300 | – | – | 1000 to 10000 | 300 to 1000 |
